In this assay the target is BmEcR (GAL4-EcR DEF with VP16-RXR-USP chimera) (Bombyx mori, UniProt P49881). As to the kind of experiment: Two-hybrid gene switch assay, luciferase reporter, BmEcR, mouse NIH3T3 cells. The format is cell-based.

Chains of the proteins cited; added tags and fusions are not shown. A line that says so, or that is headed by a name, gives the form on record, which may keep a tag or linker. Residues count along the entry.
UniProt P49881, 273-606 with tags or gaps limits assumed, stated change not applied: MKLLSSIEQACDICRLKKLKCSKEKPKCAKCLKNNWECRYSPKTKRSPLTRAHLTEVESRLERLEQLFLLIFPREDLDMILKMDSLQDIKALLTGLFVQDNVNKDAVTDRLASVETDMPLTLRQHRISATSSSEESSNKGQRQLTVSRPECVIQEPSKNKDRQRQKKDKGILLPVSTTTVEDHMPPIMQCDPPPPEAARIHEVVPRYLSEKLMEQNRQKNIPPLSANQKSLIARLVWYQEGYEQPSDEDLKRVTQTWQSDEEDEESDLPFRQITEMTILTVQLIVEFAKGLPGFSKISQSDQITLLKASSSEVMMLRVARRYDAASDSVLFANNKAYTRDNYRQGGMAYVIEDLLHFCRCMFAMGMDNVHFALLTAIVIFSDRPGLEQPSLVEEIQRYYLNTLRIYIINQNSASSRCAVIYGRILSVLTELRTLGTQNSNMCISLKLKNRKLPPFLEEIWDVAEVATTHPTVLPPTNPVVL

Molecules are shown by their SMILES. pEC50: −log10 of the molar value.

Broadly, the pEC50 is the negative decadic logarithm of the EC50, by convention in mol/L. In the case of `CC(C)CC[C@@H](O)[C@](C)(O)[C@H]1CC[C@@]2(O)C3=CC(=O)[C@@H]4C[C@@H](O)[C@@H](O)C[C@]4(C)[C@H]3CC[C@]12C`, the pEC50 (FIG. 15, GAL4-EcR (DEF) / VP16-RXR-USP chimera) was 6.47.
Consider `C[C@@H]1C(=O)O[C@H](C)[C@H]1C[C@@H](O)[C@](C)(O)[C@H]1CC[C@@]2(O)C3=CC(=O)[C@@H]4C[C@@H](O)[C@@H](O)C[C@]4(C)[C@H]3CC[C@]12C` [cyasterone], for which the negative-log EC50 (pEC50) (FIG. 13A/13B, GAL4-EcR(DEF) with VP16-RXR-USP chimera) was 6.00.
